Consider five molecules from ChEMBL document CHEMBL3414440, “Pure enantiomers of benzoylamino-tranylcypromine: LSD1 inhibition, gene modulation in human leukemia cells and effects on clonogenic potential of murine promyelocytic blasts” (Eur J Med Chem, 2015).

Chains of the proteins cited; added tags and fusions are not shown.
UniProt P27338, whole entry: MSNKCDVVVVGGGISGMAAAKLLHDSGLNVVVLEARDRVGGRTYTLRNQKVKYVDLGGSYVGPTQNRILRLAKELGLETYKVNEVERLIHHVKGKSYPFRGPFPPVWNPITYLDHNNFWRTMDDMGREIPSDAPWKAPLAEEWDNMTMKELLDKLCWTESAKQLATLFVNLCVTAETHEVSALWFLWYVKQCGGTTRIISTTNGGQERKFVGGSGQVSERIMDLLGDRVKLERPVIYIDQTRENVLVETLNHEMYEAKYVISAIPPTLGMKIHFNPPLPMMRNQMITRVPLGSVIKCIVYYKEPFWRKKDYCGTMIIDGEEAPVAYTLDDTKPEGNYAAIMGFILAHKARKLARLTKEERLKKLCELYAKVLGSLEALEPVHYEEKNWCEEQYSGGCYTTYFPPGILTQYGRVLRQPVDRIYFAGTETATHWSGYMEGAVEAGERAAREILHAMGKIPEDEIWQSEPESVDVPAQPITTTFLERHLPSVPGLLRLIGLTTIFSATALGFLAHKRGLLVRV
UniProt P21397, whole entry: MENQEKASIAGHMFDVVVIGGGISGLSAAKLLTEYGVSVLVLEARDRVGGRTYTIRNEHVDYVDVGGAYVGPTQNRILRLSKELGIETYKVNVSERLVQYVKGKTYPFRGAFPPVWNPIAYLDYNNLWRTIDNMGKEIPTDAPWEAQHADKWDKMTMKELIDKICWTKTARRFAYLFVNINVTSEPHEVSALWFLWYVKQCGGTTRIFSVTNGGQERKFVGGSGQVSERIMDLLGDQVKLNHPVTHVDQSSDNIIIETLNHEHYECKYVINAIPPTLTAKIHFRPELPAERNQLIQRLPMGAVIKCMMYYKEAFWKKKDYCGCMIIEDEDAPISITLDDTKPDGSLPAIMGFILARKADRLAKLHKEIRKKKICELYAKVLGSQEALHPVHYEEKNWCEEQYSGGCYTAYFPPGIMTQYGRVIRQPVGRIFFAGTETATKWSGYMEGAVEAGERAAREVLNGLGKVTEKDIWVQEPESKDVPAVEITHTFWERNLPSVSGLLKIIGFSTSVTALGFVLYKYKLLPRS

Structures are written as SMILES.

The target in experiment [1] is Amine oxidase [flavin-containing] B (Homo sapiens, UniProt P27338).
The target of experiment [2] is Amine oxidase [flavin-containing] A (Homo sapiens, UniProt P21397).

`N[C@H]1C[C@H]1c1ccc(NC(=O)c2ccccc2)cc1`: the IC50 in experiment [1] worked out at 21.2 µM; in experiment [2], 0.025 µM.
For `N[C@@H]1C[C@H]1c1ccc(NC(=O)c2ccccc2)cc1`, in that order: 16.8 µM and 0.024 µM.
For `N[C@@H]1C[C@@H]1c1ccc(NC(=O)c2ccccc2)cc1`, in that order: 19.2 µM and 0.037 µM.
For `NC1CC1c1ccc(NC(=O)c2ccccc2)cc1` (racemic), in that order: 8.98 µM and 0.031 µM.
As to `N[C@H]1C[C@@H]1c1ccc(NC(=O)c2ccccc2)cc1`, the IC50 in experiment [1] worked out at 12.3 µM; in experiment [2] it was 0.039 µM.

For orientation: IC50 means the concentration needed to halve the response being measured. Read a high IC50 as a need for much substance.
